Measurements from patent publication US20160138073.

T1: α-glycated hexapeptide Fru-Val-His-Leu-Thr-Pro-Glu
T1 chain: VHLTPE


Biological target: T1, α-glycated hexapeptide …

Protein | Activity ratio with respect to FPOX-15 (FPOX-15 defined as 1) | Activity ratio (glycated hexapeptide oxidase activity, FPOX-15 defined as 1) | other results
FPOX-45 (protein) MAPRANTKIIVVGGGGTMGSSTALHLLRAGYTPSNITVLDTYPIPSAQSAGYDLNKVFGISGANKHDLQLSLEAFDMWKNDPLFKPFFHNVGQMDVSSTEEGIKRLRRRYQSLLRAGIGLEKTNFLLESEDEILAKAPHFTREQIKGWKGLFCGDGGWLAAAKAINAIGQFLKEQGVKFGFGEAGTFKKPLFADADEKTCIGVETVDGTKYYADKVVLAAGAWSSTLVDLEEQCVSKAWVFAHIQLTPAEAAAYKNTPVIYDGDYGFFIEPDENGIIKVCDEFPGFTHFKMHQPYGSPVPKLISVPRSHAKHPTDTYPHASEVTIKKAINRFLPRFNDKELFNRAMCWCTDTADSNLLVCEHPRWKGFYLATGDSGHSFKLLPNIGKHVVELLEGRLESVFKDAWRWRPGSGDALKSRRAAPAKDLADMPGWRNEAKM | 24800 | – | Activity ratio with respect to FPOX-19 (FPOX-19 defined as 1): 4.6
FPOX-46 (protein) MAPRANTKIIVVGGGGTMGSSTALHLLRAGYTPSNITVLDTYPIPSAQSAGYDLNKIFGISGANKHDLQLSLEAFDMWKNDPLFKPFFHNVGQMEVSSTEEGIKRLRRRYQSLLRAGIGLEKTNFLLESEDEILAKAPHFTREQIKGWKGLFCGDGGWLAAAKAINAIGQFLKEQGVKFGFGEAGTFKKPLFADADEKTCIGVETVDGTKYYADKVVLAAGAWSSTLVDLEEQCVSKAWVFAHIQLTPAEAAAYKNTPVIYDGDYGFFIEPDENGIIKVCDEFPGFTHFKMHQPYGSPVPKLISVPRSHAKHPTDTYPHASEVTIKKAINRFLPRFNDKELFNRAMCWCTDTADSNLLVCEHPRWKGFYLATGDSGHSFKLLPNIGKHVVELLEGRLESVFKDAWRWRPGSGDALKSRRAAPAKDLADMPGWRNEAKM | 12700 | – | Activity ratio with respect to FPOX-19 (FPOX-19 defined as 1): 2.3
FPOX-19 (protein) MAPRANTKIIVVGGGGTMGSSTALHLLRAGYTPSNITVLDTYPIPSAQSAGYDLNKIFGISGANKPDLQLSLEALDMWKNDPLFKPFFHNVGQMDVSSTEEGIKKLRKRYQSLLRAGIGLEKTNFLLESEDEILAKAPHFTREQIKGWKGLFCGDGGWLAAAKAINAIGQFLKEQGVKFGFGEAGTFKKPLFADADEKTCIGVETVDGTKYYADKVVLAAGAWSSTLVDLEEQCVSKAWVFAHIQLTPAEAAAYKNTPVIYDGDYGFFIEPDENGIIKVCDEFPGFTHFKMHQPYGSPVPKLISVPRSHAKHPTDTYPHASEVTIKKAINRFLPRFNDKELFNRAMCWCTDTADANLLVCEHPRWKGFYLATGDSGHSFKLLPNIGKHVVELLEGRLESVFKDAWRWRPGSGDALKSRRAAPAKDLADMPGWRNEAKM | 5440 | – | Activity ratio with respect to FPOX-18 (FPOX-18 defined as 1): 28.6; Activity ratio with respect to FPOX-19 (FPOX-19 defined as 1): 1; Specific activity (mU/mg): 19.6 mU/mg
FPOX-15 mutant, position 61 Pro (protein) MAPRANTKIIVVGGGGTMGSSTALHLLRAGYTPSNITVLDTYPIPSAQSAGYDLNKIFGIPLRNKPDLQLYLEALDMWKNDPLFKPFFHNVGQMDVSSTEEGIKKLRMRYQSLLDAGIGLEKTNFLLESEDEILAKAPHFTREQIKGWKGLFCGDGGWLAAAKAINAIGQFLKEQGVKFGFGEAGTFKKPLFADADEKTCIGVETVDGTKYYADKVVLAAGAWSSTLVDLEEQCVSKAWVFAHIQLTPAEAAAYKNTPVIYDGDYGFFIEPDENGIIKVCDEFPGFTHFKMHQPYGSPVPKLISVPRSHAKHPTDTYPHASEVTIKKAINRFLPRFNDKELFNRAMCWCTDTADANLLVCEHPRWKGFYLATGDSGHSFKLLPNIGKHVVELLEGRLESVFKDAWRWRPGSGDALKSRRAAPAKDLADMPGWRNEAKM | – | 18 | –
FPOX derived from Aspergillus oryzae RIB40 (AoFPOX), tagged with four histidine residues at the N-terminal (protein) HHHHMTVTKSSSILIIGAGTWGASTALHLGRRGYTNVTVLDPYTVPSAISAGNDVNKIISSGQYSNKKDEIEVNEILAEEAFKGWTTDPLFKPYYHDTGVVMSACSSAGLDRLGIRVRPEEEPDVSEVTKPEHFRQLAPAVLKGNFPGWRGYHIRSNAGWAHARNALVAAIREAEKLGVKFVTGTQGRVITLIFENNDVKGAVTADGKIWRAEQTVLCAGANAAQFLDFKDQLRPTAWTLAHIRLKPEERALYKNLPVIFNIEKGFFFEPDEERGEIKICDEHPGYTNMVKSADGHLTSLPFEKTQIPKESEARVRALLSETMPQLADRPFSFARVCWCADTANREFIIDRHPEHPSLVLGCGASGRGFKYLPSIGNLIVDAIEDKVPEKVHKLTRWSPDIAVDRKWRDTLGRFGGPNRVMDFHDVKEWTNVQNKDTAKL | – | – | Specific activity (mU/mg): 0.12 mU/mg
FPOX-15 mutant, position 61 Asn (protein) MAPRANTKIIVVGGGGTMGSSTALHLLRAGYTPSNITVLDTYPIPSAQSAGYDLNKIFGINLRNKPDLQLYLEALDMWKNDPLFKPFFHNVGQMDVSSTEEGIKKLRMRYQSLLDAGIGLEKTNFLLESEDEILAKAPHFTREQIKGWKGLFCGDGGWLAAAKAINAIGQFLKEQGVKFGFGEAGTFKKPLFADADEKTCIGVETVDGTKYYADKVVLAAGAWSSTLVDLEEQCVSKAWVFAHIQLTPAEAAAYKNTPVIYDGDYGFFIEPDENGIIKVCDEFPGFTHFKMHQPYGSPVPKLISVPRSHAKHPTDTYPHASEVTIKKAINRFLPRFNDKELFNRAMCWCTDTADANLLVCEHPRWKGFYLATGDSGHSFKLLPNIGKHVVELLEGRLESVFKDAWRWRPGSGDALKSRRAAPAKDLADMPGWRNEAKM | – | 41.1 | –
FPOX-15 mutant, position 61 Gln (protein) MAPRANTKIIVVGGGGTMGSSTALHLLRAGYTPSNITVLDTYPIPSAQSAGYDLNKIFGIQLRNKPDLQLYLEALDMWKNDPLFKPFFHNVGQMDVSSTEEGIKKLRMRYQSLLDAGIGLEKTNFLLESEDEILAKAPHFTREQIKGWKGLFCGDGGWLAAAKAINAIGQFLKEQGVKFGFGEAGTFKKPLFADADEKTCIGVETVDGTKYYADKVVLAAGAWSSTLVDLEEQCVSKAWVFAHIQLTPAEAAAYKNTPVIYDGDYGFFIEPDENGIIKVCDEFPGFTHFKMHQPYGSPVPKLISVPRSHAKHPTDTYPHASEVTIKKAINRFLPRFNDKELFNRAMCWCTDTADANLLVCEHPRWKGFYLATGDSGHSFKLLPNIGKHVVELLEGRLESVFKDAWRWRPGSGDALKSRRAAPAKDLADMPGWRNEAKM | – | 16.2 | –
FPOX-15 mutant, position 61 Asp (protein) MAPRANTKIIVVGGGGTMGSSTALHLLRAGYTPSNITVLDTYPIPSAQSAGYDLNKIFGIDLRNKPDLQLYLEALDMWKNDPLFKPFFHNVGQMDVSSTEEGIKKLRMRYQSLLDAGIGLEKTNFLLESEDEILAKAPHFTREQIKGWKGLFCGDGGWLAAAKAINAIGQFLKEQGVKFGFGEAGTFKKPLFADADEKTCIGVETVDGTKYYADKVVLAAGAWSSTLVDLEEQCVSKAWVFAHIQLTPAEAAAYKNTPVIYDGDYGFFIEPDENGIIKVCDEFPGFTHFKMHQPYGSPVPKLISVPRSHAKHPTDTYPHASEVTIKKAINRFLPRFNDKELFNRAMCWCTDTADANLLVCEHPRWKGFYLATGDSGHSFKLLPNIGKHVVELLEGRLESVFKDAWRWRPGSGDALKSRRAAPAKDLADMPGWRNEAKM | – | 46.5 | –
FPOX-15 mutant, position 61 Glu (protein) MAPRANTKIIVVGGGGTMGSSTALHLLRAGYTPSNITVLDTYPIPSAQSAGYDLNKIFGIELRNKPDLQLYLEALDMWKNDPLFKPFFHNVGQMDVSSTEEGIKKLRMRYQSLLDAGIGLEKTNFLLESEDEILAKAPHFTREQIKGWKGLFCGDGGWLAAAKAINAIGQFLKEQGVKFGFGEAGTFKKPLFADADEKTCIGVETVDGTKYYADKVVLAAGAWSSTLVDLEEQCVSKAWVFAHIQLTPAEAAAYKNTPVIYDGDYGFFIEPDENGIIKVCDEFPGFTHFKMHQPYGSPVPKLISVPRSHAKHPTDTYPHASEVTIKKAINRFLPRFNDKELFNRAMCWCTDTADANLLVCEHPRWKGFYLATGDSGHSFKLLPNIGKHVVELLEGRLESVFKDAWRWRPGSGDALKSRRAAPAKDLADMPGWRNEAKM | – | 0 | –
FPOX-16 (protein) MAPRANTKIIVVGGGGTMGSSTALHLLRAGYTPSNITVLDTYPIPSAQSAGYDLNKIFGIGLRNKPDLQLYLEALDMWKNDPLFKPFFHNVGQMDVSSTEEGIKKLRMRYQSLLDAGIGLEKTNFLLESEDEILAKAPHFTREQIKGWKGLFCGDGGWLAAAKAINAIGQFLKEQGVKFGFGEAGTFKKPLFADADEKTCIGVETVDGTKYYADKVVLAAGAWSSTLVDLEEQCVSKAWVFAHIQLTPAEAAAYKNTPVIYDGDYGFFIEPDENGIIKVCDEFPGFTHFKMHQPYGSPVPKLISVPRSHAKHPTDTYPHASEVTIKKAINRFLPRFNDKELFNRAMCWCTDTADANLLVCEHPRWKGFYLATGDSGHSFKLLPNIGKHVVELLEGRLESVFKDAWRWRPGSGDALKSRRAAPAKDLADMPGWRNEAKM | 63.9 | 63.9 | Activity ratio with respect to FPOX-16 (FPOX-16 defined as 1): 1
FPOX-16 with additional mutation R63G (protein) MAPRANTKIIVVGGGGTMGSSTALHLLRAGYTPSNITVLDTYPIPSAQSAGYDLNKIFGIGLGNKPDLQLYLEALDMWKNDPLFKPFFHNVGQMDVSSTEEGIKKLRMRYQSLLDAGIGLEKTNFLLESEDEILAKAPHFTREQIKGWKGLFCGDGGWLAAAKAINAIGQFLKEQGVKFGFGEAGTFKKPLFADADEKTCIGVETVDGTKYYADKVVLAAGAWSSTLVDLEEQCVSKAWVFAHIQLTPAEAAAYKNTPVIYDGDYGFFIEPDENGIIKVCDEFPGFTHFKMHQPYGSPVPKLISVPRSHAKHPTDTYPHASEVTIKKAINRFLPRFNDKELFNRAMCWCTDTADANLLVCEHPRWKGFYLATGDSGHSFKLLPNIGKHVVELLEGRLESVFKDAWRWRPGSGDALKSRRAAPAKDLADMPGWRNEAKM | 128 | – | Activity ratio with respect to FPOX-16 (FPOX-16 defined as 1): 2
FPOX-16 with additional mutation R63P (protein) MAPRANTKIIVVGGGGTMGSSTALHLLRAGYTPSNITVLDTYPIPSAQSAGYDLNKIFGIGLPNKPDLQLYLEALDMWKNDPLFKPFFHNVGQMDVSSTEEGIKKLRMRYQSLLDAGIGLEKTNFLLESEDEILAKAPHFTREQIKGWKGLFCGDGGWLAAAKAINAIGQFLKEQGVKFGFGEAGTFKKPLFADADEKTCIGVETVDGTKYYADKVVLAAGAWSSTLVDLEEQCVSKAWVFAHIQLTPAEAAAYKNTPVIYDGDYGFFIEPDENGIIKVCDEFPGFTHFKMHQPYGSPVPKLISVPRSHAKHPTDTYPHASEVTIKKAINRFLPRFNDKELFNRAMCWCTDTADANLLVCEHPRWKGFYLATGDSGHSFKLLPNIGKHVVELLEGRLESVFKDAWRWRPGSGDALKSRRAAPAKDLADMPGWRNEAKM | 143 | – | Activity ratio with respect to FPOX-16 (FPOX-16 defined as 1): 2.2
